{"source": "patent US20250283018A1", "about": "“TOILET RIM BLOCKS WITH SCENT CHANGE” (SYMRISE AG, priority 2021, published 2025)", "origin": "cited, not measured here", "conditions": "Table 1, components of MARINA", "data": [{"smiles": "CC(=O)/C=C/C1=C(C)CCCC1(C)C", "note": "[BETA IONONE]", "values": [{"measurement": "logP", "value": 4.42}]}]}
